These results are taken from patent publication US20250345350A1, “TREATING PAIN ASSOCIATED WITH CENTRAL SENSITIZATION” (Medicon Pharmaceuticals, Inc., priority 2022, published 2025).

Test [1] has as its system STZ-induced central sensitization in Sprague-Dawley rats. The test is described as follows: PWT (von Frey), streptozotocin rat model of central sensitization (Example 4). It is filed as in vivo. As to conditions: 0.7% sulindac hydrogel 3 times a day for 1 week; 5% lidocaine cream once 30 min before; pregabalin 10 mg/kg orally once 1 h before. The protocol: Sprague-Dawley rats were fasted for 4-6 hours before being injected intraperitoneally with 45 mg/kg STZ. This was performed for all experimental groups, except the naive group. In order to prevent hypoglycaemic death, rats received 10% sucrose water as the sole water source for the first 48 hours after injection. In order to ensure only those rats considered diabetic (i.e., having non-fasting plasma glucose levels of >250 mg/dL) were included in the study, blood glucose was measured at 72 hours after the STZ injection.
Four weeks after STZ injection, the rats were randomised into treatment groups. This delay between STZ injection and treatment allows the establishment of chronic pain (allodynia) associated with central sensitization. […] 5% lidocaine cream (positive control) was applied only once to both hind paws of the rats 30 minutes before measurement of PWT.
The rats were split into 8 study groups, with those in the experimental groups (1-4) having an average body weight of about 225 g, and those in the control groups (5-8) having an average body weight of about 335 g, as follows: • 1. Group 1: naive rats (n=5) • 2. Group 2: STZ only (n=6) • 3. Group 3: STZ plus vehicle (n=6) • 4. […] Group 5: STZ plus oral vehicle (n=8) • 6. Group 6: STZ plus 0.7% sulindac hydrogel (n=7) • 7. Group 7: STZ plus 5% lidocaine cream (n=8) • 8.

Test [2] concerns paclitaxel-induced central sensitization in C57/BL/6J mice. The note with it: day 14; PS hydrogel 5% or 0.7% sulindac 3 times a day; 5% lidocaine cream once 30 min before; pregabalin 10 mg/kg orally once 1 h before.

In the case of `CC(C)C[C@H](CN)CC(=O)O` [pregabalin, reference compound], the “PWT, gm Mean ± SEM” value in test [1] was found to be 27.3 ± 1.7 gm. Also, the “PWT, g Mean ± SEM” value in test [2] amounted to 1.28 ± 0.10 g.
